Data on one molecule can be found in patent US20230052528A1 (priority 2019, published 2023).

Chains of the proteins cited; added tags and fusions are not shown. Residues count along the entry.
UniProt Q9H6P5, 1-233 limits assumed: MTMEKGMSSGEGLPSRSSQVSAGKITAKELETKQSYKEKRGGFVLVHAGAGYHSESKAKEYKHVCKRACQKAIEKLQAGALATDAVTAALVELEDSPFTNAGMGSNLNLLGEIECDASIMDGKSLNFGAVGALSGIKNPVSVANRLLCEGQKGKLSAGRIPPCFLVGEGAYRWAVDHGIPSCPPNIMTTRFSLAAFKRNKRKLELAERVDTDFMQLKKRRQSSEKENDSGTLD
UniProt Q9H6P5, 234-420 limits assumed: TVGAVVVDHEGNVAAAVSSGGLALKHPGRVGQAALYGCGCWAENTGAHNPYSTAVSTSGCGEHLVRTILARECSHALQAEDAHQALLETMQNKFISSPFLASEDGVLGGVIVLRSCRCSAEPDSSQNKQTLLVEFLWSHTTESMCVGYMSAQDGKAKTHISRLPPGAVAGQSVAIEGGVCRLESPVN

The target of this assay is Taspase-1 in transfected HEK-293T cells (Homo sapiens, UniProt Q9H6P5). The assay can be described thus: Dual-fluorescent proteolytic reporter (DFPR) cell assay. The following applies: read-out: EC50 in DFPR assay, text b1060.

As to `C=CS(=O)(=O)N1CCN(Cc2ccc(OC(F)(F)F)cc2)CC1` [SMDC967, 1-(ethenesulfonyl)-4-{[4-(trifluoromethoxy)phenyl]methyl}piperazine], the EC50 amounted to 26.5 µM.
